{
  "source": "patent EP1038880B1",
  "about": "“Androstanes and pregnanes for allosteric modulation of GABA receptor” (priority 1994, dated 1995)",
  "key": {"Glucocorticoid Receptors": {"molecular_target": "T1, Glucocorticoid Receptors (Rattus norvegicus, UniProt P06536)", "T1 construct": "from tissue; host or cells: rat brain cytosol", "T1 sequence (P06536 1-795)": "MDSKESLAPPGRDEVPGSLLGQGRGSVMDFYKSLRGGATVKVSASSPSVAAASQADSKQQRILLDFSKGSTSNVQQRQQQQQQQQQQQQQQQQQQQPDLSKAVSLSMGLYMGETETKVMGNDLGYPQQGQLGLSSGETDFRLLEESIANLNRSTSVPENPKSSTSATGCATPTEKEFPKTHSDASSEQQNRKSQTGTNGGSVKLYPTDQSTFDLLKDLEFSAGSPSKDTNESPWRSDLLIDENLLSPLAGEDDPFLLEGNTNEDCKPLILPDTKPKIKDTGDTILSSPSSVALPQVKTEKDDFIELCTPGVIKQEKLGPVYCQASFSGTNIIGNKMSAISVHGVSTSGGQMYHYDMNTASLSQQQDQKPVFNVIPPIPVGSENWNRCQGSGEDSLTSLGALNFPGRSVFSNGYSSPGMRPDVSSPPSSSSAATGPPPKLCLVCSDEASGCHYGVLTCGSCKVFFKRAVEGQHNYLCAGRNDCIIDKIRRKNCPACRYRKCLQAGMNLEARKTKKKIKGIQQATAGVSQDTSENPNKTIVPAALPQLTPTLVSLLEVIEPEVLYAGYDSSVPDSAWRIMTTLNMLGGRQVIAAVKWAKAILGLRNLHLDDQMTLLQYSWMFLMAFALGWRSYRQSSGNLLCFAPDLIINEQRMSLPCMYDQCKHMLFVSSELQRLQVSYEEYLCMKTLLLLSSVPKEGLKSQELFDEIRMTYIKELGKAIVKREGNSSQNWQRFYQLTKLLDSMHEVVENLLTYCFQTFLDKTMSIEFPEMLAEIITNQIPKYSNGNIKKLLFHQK", "experiment": "Inhibition of 3H-dexamethasone binding, brain cytosol", "design": "species or system rats; dose or concentration left out as unconfirmed", "settings": "read-out: % of Inhibition"}, "Sprague-Dawley rats": {"tested_on": "Sprague-Dawley rats", "experiment": "Geller-Seifter conflict test", "assay_type": "in vivo", "settings": "subcutaneous administration (Figure 10)"}},
  "data": [
    {"compound": "CC(=O)[C@H]1CC[C@H]2[C@@H]3CC[C@@H]4C[C@H](O)CC[C@]4(C)[C@H]3CC[C@]12C", "note": "[5β-pregnan-3α-ol-20-one, 3α-OH-5β-pregnan-20-one, reference compound]", "values": [
      {"measurement": "inhibition", "setting": "Glucocorticoid Receptors", "value": 5.9, "unit": "%"},
      {"measurement": "dose of peak effect on rate of punished responses", "setting": "Sprague-Dawley rats", "value": 2, "unit": "mg/kg"}
    ]}
  ]
}
